## Measured affinities in a library of Ab-14 light chain variants

Target: peptide PDVDLGDISGINAS, taken from heptad repeat 2 (HR2) of SARS-CoV-2 spike.

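The starting antibody came from a phage panning campaign against this peptide. The library (AAYL50) carries one to three amino acid substitutions per variant, with no insertions or deletions. The scFvs were displayed on barcoded MATa yeast, the peptide on MATalpha yeast. The frequency of each diploid, read from paired DNA barcodes, reflects how well the two displayed proteins bind. Read counts were normalised to the haploid input and turned into Kd by a linear fit to BCL2-family pairs of known affinity, for each replicate. The assay was run in three technical replicates.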

Parent: Ab-14, a human scFv built as VH, a (GGGGS)3 linker, VL. Only the CDRs of the light chain vary.
VH: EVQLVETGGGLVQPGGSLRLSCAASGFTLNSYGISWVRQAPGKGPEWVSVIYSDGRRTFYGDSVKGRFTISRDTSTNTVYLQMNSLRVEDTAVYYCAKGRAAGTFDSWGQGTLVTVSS
VL: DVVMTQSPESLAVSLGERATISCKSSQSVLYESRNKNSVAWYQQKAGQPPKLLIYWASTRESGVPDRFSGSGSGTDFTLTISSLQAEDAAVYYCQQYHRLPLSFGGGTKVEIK

The whole VL of each variant is written out. All variants listed here change A57 of the VL, counted from its first residue. Each Kd is an estimate from the mating assay, the geometric mean of the replicates in which the pair was seen; lower is stronger. An entry "nd" has no value in the source: the pair was not observed among the diploids in any replicate. This suggests poor binding but is not conclusive. Parent in this assay: reference entry 4.4 nM, copy in this library 48 nM. As a blank, each scFv also met three strains without target: over library AAYL50, 18% of these pairings were detected, typically at 15 µM and seldom below 970 nM.

For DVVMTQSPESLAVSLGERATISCKSSQSVLNESRNKNSVAWYQQKAGQPPKLLIYWRSTRESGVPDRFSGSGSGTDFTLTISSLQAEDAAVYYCQQYHRLPASFGGGTKVEIK, the assay gave 39 µM (1 of 3 replicates). Variant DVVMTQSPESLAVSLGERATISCKSSQSVLYESRNKNSVAWYQQKAGQPPKLLIYWYSTREQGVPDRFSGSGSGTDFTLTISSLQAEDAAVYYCQIYHRLPLSFGGGTKVEIK showed 2.1 µM (1 of 3 replicates). For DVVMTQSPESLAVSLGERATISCKSSQSVLYEIRNKNSVAWYQQKAGQPPKLLIYWKSTRGSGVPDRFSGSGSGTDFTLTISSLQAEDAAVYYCQQYHRLPLSFGGGTKVEIK, the assay gave 13 µM (2 of 3 replicates). For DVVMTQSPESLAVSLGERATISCESSQSMLYESRNKNSVAWYQQKAGQPPKLLIYWMSTRESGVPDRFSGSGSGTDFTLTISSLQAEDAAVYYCQQYHRLPLSFGGGTKVEIK, the assay gave 1.9 µM (3 of 3 replicates). Variant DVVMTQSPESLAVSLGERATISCKSSQGVLYESRNKNSVAWYQQKAGQPPKLLIYWDSLRESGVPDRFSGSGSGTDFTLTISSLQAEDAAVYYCQQYHRLPLSFGGGTKVEIK showed 34 nM (3 of 3 replicates). Variant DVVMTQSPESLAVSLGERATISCKKSQSVLFESRNKNSVAWYQQKAGQPPKLLIYWWSTRESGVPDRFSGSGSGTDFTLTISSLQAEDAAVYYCQQYHRLPLSFGGGTKVEIK gave nd (0 of 3 replicates). Variant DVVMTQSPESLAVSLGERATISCKSSQSVLYESRNKNSVAWYQQKAGQPPKLLIYWESTRESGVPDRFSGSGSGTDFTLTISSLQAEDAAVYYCQQYMRLPLSFGGGTKVEIK gave 680 nM (2 of 3 replicates). Variant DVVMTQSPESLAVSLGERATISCKSSQYVLYEGRNKNSVAWYQQKAGQPPKLLIYWISTRESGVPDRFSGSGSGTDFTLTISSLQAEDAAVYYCQQYHRLPLSFGGGTKVEIK showed nd (0 of 3 replicates). Variant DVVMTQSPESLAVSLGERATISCVSSQSVLYERRNKNSVAWYQQKAGQPPKLLIYWCSTRESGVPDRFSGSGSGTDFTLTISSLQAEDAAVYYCQQYHRLPLSFGGGTKVEIK showed 5.4 µM (3 of 3 replicates).

For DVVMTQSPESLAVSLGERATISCKSSQSVLYESRNKMSVAWYQQKAGQPPKLLIYWMSTRESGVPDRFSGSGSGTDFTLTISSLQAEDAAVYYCQQIHRLPLSFGGGTKVEIK, the assay gave 5.5 µM (1 of 3 replicates). With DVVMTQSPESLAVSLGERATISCKSSQSVLYESRNKNSVAWYQQKAGQPPKLLIYWNNTRESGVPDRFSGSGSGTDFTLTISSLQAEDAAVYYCDQYHRLPLSFGGGTKVEIK the result was nd (0 of 3 replicates). With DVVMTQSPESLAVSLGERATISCKSSQSVLYESRGKNSVAWYQQKAGQPPKLLIYWRSTRENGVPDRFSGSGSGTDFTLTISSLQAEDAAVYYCQQYHRLPLSFGGGTKVEIK the result was 2.6 µM (1 of 3 replicates). Variant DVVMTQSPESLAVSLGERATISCKSSQSVLYESRNVNSVAWYQQKAGQPPKLLIYWVSTRESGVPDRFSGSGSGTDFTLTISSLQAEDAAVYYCQQYHRWPLSFGGGTKVEIK gave 1.4 µM (3 of 3 replicates). Variant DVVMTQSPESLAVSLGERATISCKGSQSVLYESRNKNSVAWYQQKAGQPPKLLIYWTSDRESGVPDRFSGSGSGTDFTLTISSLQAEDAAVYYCQQYHRLPLSFGGGTKVEIK gave 3.7 µM (3 of 3 replicates). Variant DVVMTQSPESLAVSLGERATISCKSSQSVLYESRNKNSVAWYQQKAGQPPKLLIYWDSTKESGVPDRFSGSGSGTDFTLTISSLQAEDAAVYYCQQYHRLPLSFGGGTKVEIK showed 30 nM (3 of 3 replicates). With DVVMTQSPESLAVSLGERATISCKSSQSVLAESRNKNSVAWYQQKAGQPPKLLIYWISTRESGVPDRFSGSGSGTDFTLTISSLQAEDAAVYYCQQYHRCPLSFGGGTKVEIK the result was nd (0 of 3 replicates). Variant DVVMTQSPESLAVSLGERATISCKSPQSVLYESRNKNSVAWYQQKAGQPPKLLIYWRSTRESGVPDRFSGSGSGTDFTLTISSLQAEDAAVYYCQNYHRLPLSFGGGTKVEIK gave 4.8 µM (1 of 3 replicates).

Values reported by Engelhart et al. 2022, doi:10.1038/s41597-022-01779-4 (FLAb copy).